Drawing on ChEMBL document CHEMBL2311273, “Discovery of potent, selective multidrug and toxin extrusion transporter 1 (MATE1, SLC47A1) inhibitors through prescription drug profiling and computational modeling” (J Med Chem, 2013), this text covers IC50 for seven compounds.

Common to all, as to format: cell-based
For assay [1], the target named is T1, Multidrug and toxin extrusion protein 1 (Homo sapiens, UniProt Q96FL8).
T1 sequence (Q96FL8 whole entry): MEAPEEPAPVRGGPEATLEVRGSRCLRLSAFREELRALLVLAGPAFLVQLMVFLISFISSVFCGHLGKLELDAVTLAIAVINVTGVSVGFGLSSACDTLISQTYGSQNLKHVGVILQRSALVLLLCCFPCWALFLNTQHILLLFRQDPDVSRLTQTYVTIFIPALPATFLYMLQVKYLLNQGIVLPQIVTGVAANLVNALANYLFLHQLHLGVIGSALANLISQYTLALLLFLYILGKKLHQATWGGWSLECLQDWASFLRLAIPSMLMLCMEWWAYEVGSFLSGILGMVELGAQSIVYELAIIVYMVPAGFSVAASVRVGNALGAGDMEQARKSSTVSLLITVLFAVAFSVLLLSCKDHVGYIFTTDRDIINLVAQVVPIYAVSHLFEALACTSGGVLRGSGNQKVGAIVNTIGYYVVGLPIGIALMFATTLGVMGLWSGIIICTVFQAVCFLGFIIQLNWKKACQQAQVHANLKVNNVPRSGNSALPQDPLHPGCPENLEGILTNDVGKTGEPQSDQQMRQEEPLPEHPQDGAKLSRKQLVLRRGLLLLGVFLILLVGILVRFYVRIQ
Description: Inhibition of human MATE1-mediated ASP+ uptake expressed in HEK293 cells after 1.5 mins by fluorescence assay.

Assay [2] concerns the target T2, Multidrug and toxin extrusion protein 2 (Homo sapiens, UniProt Q86VL8).
T2 sequence (Q86VL8 whole entry): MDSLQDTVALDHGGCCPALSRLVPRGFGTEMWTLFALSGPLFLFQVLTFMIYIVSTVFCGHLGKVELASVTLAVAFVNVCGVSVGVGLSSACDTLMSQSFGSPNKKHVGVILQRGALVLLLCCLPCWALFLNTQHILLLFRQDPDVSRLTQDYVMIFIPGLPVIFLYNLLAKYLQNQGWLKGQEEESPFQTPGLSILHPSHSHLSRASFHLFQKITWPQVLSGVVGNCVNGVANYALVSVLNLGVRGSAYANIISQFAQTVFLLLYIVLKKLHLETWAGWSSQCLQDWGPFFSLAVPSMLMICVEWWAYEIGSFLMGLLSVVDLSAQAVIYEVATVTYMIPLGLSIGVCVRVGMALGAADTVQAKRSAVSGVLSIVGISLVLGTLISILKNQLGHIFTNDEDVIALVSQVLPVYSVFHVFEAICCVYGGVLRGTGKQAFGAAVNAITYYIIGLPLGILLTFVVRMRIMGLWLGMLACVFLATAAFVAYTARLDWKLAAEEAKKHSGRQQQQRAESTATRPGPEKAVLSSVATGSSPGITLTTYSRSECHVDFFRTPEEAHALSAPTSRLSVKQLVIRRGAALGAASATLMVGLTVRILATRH
Description: Inhibition of human MATE2K-mediated ASP+ uptake expressed in HEK293 cells after 1.5 mins by fluorescence assay.

The target in assay [3] is T2, Multidrug and toxin extrusion protein 2. Description: Inhibition of human MATE2K-mediated ASP+ uptake expressed in HEK293 cells up to 500 uM after 1.5 mins by fluorescence assay.

A word on the IC50: it is the concentration that inhibits the measured activity by half. A higher IC50 goes with lower potency. Take `Oc1c(Cl)cc(Cl)cc1Sc1cc(Cl)cc(Cl)c1O` [BITHIONOL]: half-maximal inhibition in assay [1] (IC50) required 5.2 µM.

As for `CN/C(=N/CCSCc1nc[nH]c1C)NC#N` [CIMETIDINE], the half-inhibitory concentration (IC50) in assay [1] stood at 1.2 µM.

On to `C[C@]12CCC(=O)C=C1CC[C@@H]1[C@@H]2C(=O)C[C@@]2(C)[C@H]1CC[C@]2(O)C(=O)CO` [CORTISONE], for which, in assay [1], the IC50 is 21.4 µM.

In the case of `O=C(O)c1cccnc1` [NIACIN], in assay [1], the IC50 is more than 500 µM.

Regarding `COc1ccc2c(c1OC)C(=O)O[C@@H]2[C@H]1c2c(cc3c(c2OC)OCO3)CCN1C` [NOSCAPINE], the IC50 in assay [1] worked out at 34.5 µM.

As for `Cc1nccn1CC1CCc2c(c3ccccc3n2C)C1=O` (centres undefined) [ONDANSETRON], the IC50 in assay [2] stood at 0.3 µM; in assay [1] it was 0.16 µM; in assay [3], 0.16 µM.

`CNC(=C[N+](=O)[O-])NCCSCc1ccc(CN(C)C)o1` [RANITIDINE] had an IC50 in assay [1] of 8.3 µM.
